The text below walks through data of ChEMBL document CHEMBL5104100, “Synthesis and Preclinical Characterization of LY3154885, a Human Dopamine D1 Receptor Positive Allosteric Modulator with an Improved Nonclinical Drug-Drug Interaction Risk Profile” (J Med Chem, 2022).

Chains of the proteins cited; added tags and fusions are not shown.
UniProt Q01959, whole entry: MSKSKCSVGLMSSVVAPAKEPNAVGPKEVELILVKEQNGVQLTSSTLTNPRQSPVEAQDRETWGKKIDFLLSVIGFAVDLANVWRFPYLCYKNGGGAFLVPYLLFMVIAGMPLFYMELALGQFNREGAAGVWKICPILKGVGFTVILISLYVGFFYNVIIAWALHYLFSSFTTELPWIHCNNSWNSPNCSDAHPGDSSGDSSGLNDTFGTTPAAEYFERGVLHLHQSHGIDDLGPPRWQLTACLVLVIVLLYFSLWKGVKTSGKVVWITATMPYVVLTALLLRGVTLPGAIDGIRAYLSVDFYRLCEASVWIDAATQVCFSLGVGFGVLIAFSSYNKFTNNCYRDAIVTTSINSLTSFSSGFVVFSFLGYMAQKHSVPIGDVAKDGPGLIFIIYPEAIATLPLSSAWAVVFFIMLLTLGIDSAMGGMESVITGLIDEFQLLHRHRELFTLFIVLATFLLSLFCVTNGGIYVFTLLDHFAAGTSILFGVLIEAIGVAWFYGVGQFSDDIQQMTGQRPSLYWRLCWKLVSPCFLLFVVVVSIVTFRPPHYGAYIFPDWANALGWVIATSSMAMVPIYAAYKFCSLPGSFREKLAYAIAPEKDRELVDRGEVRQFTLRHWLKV

The structures appear in SMILES notation.

For orientation: inhibition means the share of the control response that was lost under treatment.

The target of assay [1] is Sodium-dependent dopamine transporter (Homo sapiens) (UniProt Q01959). In words: Inhibition of dopamine transporter (unknown origin) at 10 uM relative to control.
The target is the same in assay [2]. In words: Inhibition of dopamine transporter (unknown origin) at 1 uM relative to control.

For `C[C@H]1c2cccc(-c3cnn(C)c3)c2C[C@H](CO)N1C(=O)Cc1c(Cl)cccc1Cl`, the inhibition came out at 62% in assay [1] and 23% in assay [2].
